Assay results from PubChem BioAssay AID651671 (Sanford-Burnham Center for Chemical Genomics, 2012).
This is a selection; strong and weak results do not stand in their true shares. Calls of active or inactive are those of the source.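 How the source made its calls: active means activation of at least 7% in one or more replicates; inactive means the rest.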

Assay: activation of alpha-dystroglycan glycosylation – single concentration, Pro5-aDG cells, confirmation (AID 651671);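 further: cells exposed to compound for two days before detection; 0% = DMSO-treated Pro5 cells and 100% = DMSO-treated B10-LARGE cells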
Conditions: alpha-DG glycosylation, IIH6 AlphaLISA, active compounds read high, screened at 10 µM (by protocol), scaled to LARGE-overexpressing B10 cells as 100%

With `CCCCn1nnnc1C(c1cccs1)N1CCC(n2c(=O)[nH]c3ccccc32)CC1` (stereo unspecified) the activation was inactive: -2.09%.
